{"sequences": {"note": "By UniProt entry, the sequences of proteins in these tests, tags left out. Residues count along the entry.", "UniProt Q10469, 30-447 limits assumed": "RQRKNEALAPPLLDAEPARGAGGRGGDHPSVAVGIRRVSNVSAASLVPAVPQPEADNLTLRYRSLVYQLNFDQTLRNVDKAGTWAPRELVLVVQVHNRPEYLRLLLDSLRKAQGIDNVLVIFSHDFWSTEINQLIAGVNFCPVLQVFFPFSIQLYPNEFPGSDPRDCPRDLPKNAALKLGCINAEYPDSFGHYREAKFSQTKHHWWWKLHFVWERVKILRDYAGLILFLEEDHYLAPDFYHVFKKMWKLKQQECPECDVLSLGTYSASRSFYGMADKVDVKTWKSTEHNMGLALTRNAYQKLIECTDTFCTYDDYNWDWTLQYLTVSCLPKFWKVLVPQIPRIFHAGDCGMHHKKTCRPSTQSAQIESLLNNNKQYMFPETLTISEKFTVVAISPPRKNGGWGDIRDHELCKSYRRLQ", "UniProt P15907, 27-406 limits assumed": "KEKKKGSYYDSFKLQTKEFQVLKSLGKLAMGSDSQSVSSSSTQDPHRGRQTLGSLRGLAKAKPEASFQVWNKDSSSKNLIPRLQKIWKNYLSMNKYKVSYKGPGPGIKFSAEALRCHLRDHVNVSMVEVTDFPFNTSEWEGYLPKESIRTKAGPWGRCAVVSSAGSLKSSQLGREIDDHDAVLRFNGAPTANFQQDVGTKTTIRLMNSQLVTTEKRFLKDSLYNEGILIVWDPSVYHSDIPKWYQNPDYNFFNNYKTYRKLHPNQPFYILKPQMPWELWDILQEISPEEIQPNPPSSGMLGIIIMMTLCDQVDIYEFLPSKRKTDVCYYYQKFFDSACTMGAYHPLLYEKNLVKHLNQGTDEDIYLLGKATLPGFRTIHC"}, "source": "paper PMC10900492", "about": "“Asymmetrical Biantennary Glycans Prepared by a Stop-and-Go Strategy Reveal Receptor Binding Evolution of Human Influenza A Viruses” (2024)", "key": {"MGAT2": {"target": "MGAT2 (Homo sapiens, UniProt Q10469)", "experiment": "preparative glycosyl transfer, LC-MS and NMR of product", "conditions": "HEPES pH 7.0, 37 °C"}, "ST6Gal1": {"target": "ST6Gal1 (Homo sapiens, UniProt P15907)", "experiment": "preparative glycosyl transfer, LC-MS and NMR of product", "conditions": "acceptors 20-22, cacodylate pH 6.5, 37 °C"}}}
{"compound": "CC(=O)N[C@H]1[C@@H](OP(=O)(O)OP(=O)(O)OC[C@H]2O[C@@H](n3ccc(=O)[nH]c3=O)[C@H](O)[C@@H]2O)O[C@H](CO)[C@@H](O)[C@@H]1O", "values": [{"measurement": "preparative glycosyl transfer, LC-MS and NMR of product", "setting": "MGAT2; acceptor glycan 13, MnCl2 2 mM", "value": "further modified by MGAT2 in the presence of UDP-GlcNTFA or UDP-GlcNAc"}]}
{"compound": "CC(=O)N[C@H]1[C@H]([C@H](O)[C@H](O)CO)O[C@](OP(=O)(O)OC[C@H]2O[C@@H](n3ccc(N)nc3=O)[C@H](O)[C@@H]2O)(C(=O)O)C[C@@H]1O", "values": [{"measurement": "preparative glycosyl transfer, LC-MS and NMR of product", "setting": "ST6Gal1", "value": "by ST6Gal1 in the presence of CMP-Neu5Ac"}]}
{"compound": "O=C(N[C@H]1[C@@H](OP(=O)(O)OP(=O)(O)OC[C@H]2O[C@@H](n3ccc(=O)[nH]c3=O)[C@H](O)[C@@H]2O)O[C@H](CO)[C@@H](O)[C@@H]1O)C(F)(F)F", "values": [{"measurement": "preparative glycosyl transfer, LC-MS and NMR of product", "setting": "MGAT2; acceptor glycan 10, MnCl2 2 mM", "value": "MGAT2 can utilize an unnatural donor such as UDP-GlcNTFA"}]}
